In patent publication US20200368361A1 one finds Total Binding and binding signal ratio to isotype control (11 nM) data, which are given here for one molecule.

Protein sequences, listed by entry. Tags and fused reporters are not part of them. Lines headed by an entry give the natural chain unless they say otherwise; changes in a name come on top.
UniProt P21757: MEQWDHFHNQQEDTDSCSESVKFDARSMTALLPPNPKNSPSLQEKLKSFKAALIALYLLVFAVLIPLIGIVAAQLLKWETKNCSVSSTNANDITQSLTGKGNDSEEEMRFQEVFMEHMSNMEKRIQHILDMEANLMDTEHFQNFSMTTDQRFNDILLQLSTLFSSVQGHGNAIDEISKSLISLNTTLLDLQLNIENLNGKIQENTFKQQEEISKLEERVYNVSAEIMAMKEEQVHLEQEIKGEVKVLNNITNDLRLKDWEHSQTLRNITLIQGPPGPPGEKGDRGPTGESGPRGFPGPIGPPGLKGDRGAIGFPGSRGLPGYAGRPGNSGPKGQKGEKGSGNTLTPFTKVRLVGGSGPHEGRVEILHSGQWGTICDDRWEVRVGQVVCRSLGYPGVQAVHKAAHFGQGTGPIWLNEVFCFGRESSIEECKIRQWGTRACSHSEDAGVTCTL

For test [1], the target named is human MSR1 endogenously expressed on PMA-differentiated THP-1 cells (human) (UniProt P21757). The experiment in a line: imaging of PMA-differentiated THP-1 cells, 10 ug/mL antibody, Alexa 488 secondary.
For test [2], the target named is endogenously expressed human MSR1 on PMA-treated THP-1 cells (human) (UniProt P21757). The experiment in a line: ECL cell binding, PMA-treated THP-1.

B1: H1H27751P-N297Q (antibody, human IgG1, V domains shown)
VH: EVQLVESGGGLVQPGGSLRLSCAASGFTFSNYAMHWVRQAPGKGLEYVSAISSNGGSTYYADSVKGRITISRDNSKNTLYLQMGSLRAEDMAVYYCARGRPYYYYFGMDVWGQGTTVTVSS
VL: DIVMTQTPVSSPVTLGQPASISCRSSQSLVHSDGNTYLSWFQQRPGQPPRLLIYKISNRFSGVPDRFSGSGAGTDFTLKISRVEAEDVGVYYCMQATQFPLNFGGGTKVEIKR
In test [1], B1 came in with a Total Binding at 4° C. of 5.83e+06 RFU and a Total Binding at 37° C. of 8e+06 RFU. Further, the binding signal ratio to isotype control (11 nM) in test [2] was determined as 54 fold.
